Experimental data reported in article doi:10.1101/2020.09.15.275891v2 (biorxiv, 2020).
pIC50: −log10 of the molar value.

Target: mature SARSCoV2 M^pro (Severe acute respiratory syndrome coronavirus 2, UniProt P0DTD1)
Experiment: biochemical

In the case of `CCCC[C@H](NC(=O)[C@@H]1[C@@H]2[C@H](CN1C(=O)[C@@H](NC(=O)NC1(CS(=O)(=O)C(C)(C)C)CCCCC1)C(C)(C)C)C2(C)C)C(=O)C(=O)NC1CC1` [narlaprevir], the pIC50 was less than 4.70.
